Most compounds without a hit are left out; they make up all but 1.9% or so of the library.
PglD inh: C. jejuni PglD acetyltransferase inhibitors, primary screen, biochemical, DTNB colorimetric, single point | UDP-N-acetylbacillosamine N-acetyltransferase PglD (Campylobacter jejuni) | purified PglD enzyme, DTNB colorimetric CoA detection | inhibition, % at 12.5 µM | hit rate 0.098% among 360,000 | AID 602405, 2012; in the data active = inhibition above about 16%, passing the limit was not always enough; inconclusive = no clear call, values can overlap the other calls
ERp5 inh: inhibitors of ERp5-driven insulin aggregation, primary screen, biochemical, turbidity, absorbance 650 nm, single point | Protein disulfide-isomerase A6 (Homo sapiens), Q15084 | 90 min | inhibition, % at 9.99 µM | hit rate 0.05% among 350,000 | AID 651711, 2012;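 active = mean replicate inhibition above about 25%, with every replicate also reaching it, limit read from the data, passing the limit was not always enough; inconclusive = only one of those two criteria met; inactive = neither criterion met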
PDI turbidity: inhibitors of human PDI, primary screen, biochemical, turbidity, single point, plate reader. Protein disulfide-isomerase (Homo sapiens), P07237. inhibition, % at 10 µM. hit rate 0.052% among 350,000. PDI insulin aggregation turbidity, A650, 90 min;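 active = mean inhibition across replicates of 30% or more, whatever share of single replicates reach that level; inconclusive = mean inhibition below 30% while every single replicate reaches 30%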
ARNT-TACC3 inh: disruptors of ARNT/TACC3 protein interaction, primary screen, biochemical, AlphaScreen, single concentration | hit rate 0.66% among 390,000 | inhibition, % at 9.99 µM | AlphaScreen His-ARNT PAS-B/GST-TACC3 binding, luminescence; TACC3 fragment carries E629A point mutation | Transforming acidic coiled-coil-containing protein 3 (Homo sapiens), Q9Y6A5;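 active = mean inhibition of replicates at least 50% and at least half of replicates each reaching 50%; inconclusive = half or more replicates reach 50% but mean below 50%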;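 note: 0% = complete ARNT plus TACC3 wells and 100% = ARNT alone without TACC3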
FGF22 binding: binders of human FGF22 protein, primary screen, FGF22 synaptogenesis inhibitor project, biophysical, thermal shift, single point | Fibroblast growth factor 22 (Homo sapiens), Q9HCT0 | recombinant FGF22 thermal shift, SYPRO orange fluorescence; percent of sucrose octasulfate shift, DMSO zero | activity (Tm shift, normalised), % at 9.99 µM | hit rate 1.5% among 340,000;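 active = mean Tm shift, scaled 0 neutral to 100 positive control, at about 1.3% or above, every replicate too, limit read from the data; inconclusive = no clear call, values can overlap the other calls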
UUG fidelity: modulators of yeast start codon fidelity, primary screen, whole organism, S. cerevisiae, single point, plate reader | AID 602363, 2012 | S. cerevisiae UUG-firefly luciferase reporter, luminescence/redox ratio | activity score, % at 18.7 µM | hit rate 0.13% among 350,000;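 active = replicate mean at a twofold rise or more, about +100% in these data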;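 also: firefly luciferase made from a UUG start codon reports start codon fidelity; reporter light over untreated wells divided by growth signal over untreated wells; some hits fall short of that in this replicate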
ARNT Alpha ctr-1: AlphaScreen signal interference compounds, dose response, artefact control for ARNT-TACC3 interaction inhibitor project, biochemical, luminescence, cherry-pick | His-ARNT PASB-GST AlphaScreen artifact counter-screen | hit rate 50% among 1,200 | AC50, µM (top dose mostly 68 µM), for inactives: at the top dose activity change, negative = signal decrease | AID 651705, 2012 | shares compounds with ARNT-TACC3 inh;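 active = every separate test run was called active for a drop in luminescence, with AC50 within twice the top valid dose, actives reach about 71 µM in these data; inconclusive = the separate test runs disagree in their calls; inactive = all runs inactive, including signal change in the wrong direction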
ARNT Alpha ctr-2: AlphaScreen signal interference by compounds, dose response, artefact control for ARNT/TACC3 disruptor project, biochemical, dual-tagged ARNT, dry powder. shares compounds with ARNT-TACC3 inh. Dual-tagged His-ARNT PASB-GST AlphaScreen artifact counter-screen. AC50, µM. hit rate 70% among 45;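 active = luminescence drop, with half-maximal potency fitted within twice the sample's top valid dose, cut at about 70 µM in these data; inactive = the rest, including signal moving the wrong way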
* hit, by the source's call; i = inactive; ? = inconclusive; nt = no result; [ ] = remark or other dose.

Amino acid sequences for entries named in this document (tags omitted).
Protein disulfide-isomerase A6 (Homo sapiens), Q15084, UniProt Q15084, whole entry, looked up: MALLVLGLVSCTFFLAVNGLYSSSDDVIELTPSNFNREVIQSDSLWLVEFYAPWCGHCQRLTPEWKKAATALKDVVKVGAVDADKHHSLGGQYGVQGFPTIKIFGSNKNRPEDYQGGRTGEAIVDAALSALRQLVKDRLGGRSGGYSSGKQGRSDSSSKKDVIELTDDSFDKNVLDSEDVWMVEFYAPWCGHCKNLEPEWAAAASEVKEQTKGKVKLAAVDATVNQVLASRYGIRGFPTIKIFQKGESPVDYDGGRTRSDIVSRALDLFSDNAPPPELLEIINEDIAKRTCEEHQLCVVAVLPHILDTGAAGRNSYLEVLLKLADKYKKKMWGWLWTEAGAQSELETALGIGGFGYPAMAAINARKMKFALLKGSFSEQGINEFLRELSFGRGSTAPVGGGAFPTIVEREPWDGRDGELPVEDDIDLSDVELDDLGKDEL

SMILES	PglD inh	ERp5 inh	PDI turbidity	ARNT-TACC3 inh	FGF22 binding	UUG fidelity	ARNT Alpha ctr-1	others
O=C(O)C1CCCCC1C(=O)NCCCn1ccnc1 (centres undefined)	nt	?	-1.9	67.4*	-0.1	nt	-6.3%
O=C(O)C1C2C=CC(C2)C1C(=O)NCCCn1ccnc1 (centres undefined)	-2.7	nt	2.5	53.8*	nt	-19.1	3.4%
O=C(O)C1C2C=CC(C2)C1C(=O)NCCCN1CCCC1=O (centres undefined)	1.0	6.8	-2.7	-21.5	-0.3	-12.0	nt
CN1C(=O)c2cc(NC(=O)c3ccccc3)ccc2OC[C@@H]2O[C@H](CC(=O)NC3CCCC3)CC[C@@H]21	-1.8	-1.4	nt	-2.5	0.1	1.8	nt
COc1ccccc1-c1cn(CC[C@@H]2CC[C@@H](NC(=O)C3CCCC3)[C@H](CO)O2)nn1	nt	-1.5	nt	nt	nt	nt	nt
O=C(C[C@H]1C=C[C@@H](NS(=O)(=O)c2ccc(F)cc2)[C@H](CO)O1)N1CCN(c2ccccc2)CC1	-1.0	0.9	nt	-0.2	-0.2	0.7	nt
O=C(C[C@H]1C=C[C@H](NS(=O)(=O)c2ccc(F)cc2)[C@H](CO)O1)N1CCN(c2ccccc2)CC1	0.4	-4.3	nt	52.3*	0.0	3.8	0.4%[38 µM]
COc1ccc(C2c3c(nc[nH]c3=O)Oc3nc[nH]c(=O)c32)cc1	0.5	nt	-6.5	3.6	nt	-1.5	nt
O=c1[nH]cnc2c1C(c1ccccc1[N+](=O)[O-])c1c(nc[nH]c1=O)O2	-0.3	nt	0.2	50.0*	nt	5.2	-34.7%
Cc1ccc(/C=N/NC(=S)N2CCOCC2)cc1	1.6	nt	3.0	45.4*	nt	-26.6	-31.0%
CNC[C@H]1Oc2ccc(NC(=O)NC3CCCCC3)cc2C(=O)N([C@H](C)CO)C[C@H]1C	0.3	4.6	nt	-9.6	0.0	-7.9	nt
Cn1nc(-c2ccccn2)nc2c(=O)n(C)c(=O)nc1-2	5.7	101.6*	139.1*	66.6*	0.2	-78.7	-1.5%
C[C@H](CO)N1C[C@H](C)[C@@H](CN(C)Cc2ccc(Cl)c(Cl)c2)Oc2ccc(N(C)C)cc2C1=O	-1.7	0.9	nt	8.7	0.0	10.1	nt
Cc1ccc(C2CCN(C(=S)Nc3cccc(C)c3)C2)cc1 (centres undefined)	nt	-0.9	-5.9	57.7*	0.0	nt	-12.3%
Cc1ccc(S(=O)(=O)Nc2cccc3c2O[C@@H](CN(C)S(=O)(=O)c2ccccc2)[C@@H](C)CN([C@@H](C)CO)C3=O)cc1	-0.7	0.5	nt	-3.4	-0.2	5.9	nt
CCCCNC(=O)CCC(=O)N1CCN(C(c2ccccc2)c2ccccc2)CC1	3.0	3.9	3.2	49.5*	0.0	-2.4	-7.6%
COC(=O)CNC(=O)CCC(=O)N1CCN(C(c2ccccc2)c2ccccc2)CC1	0.9	4.5	8.5	0.4	-0.1	2.8	nt
CCOc1ccccc1Nc1nc(N)nc(CSc2nccc(C)n2)n1	-1.2	nt	0.9	2.9	nt	-1.0	nt
CCOc1ccccc1Nc1nc(N)nc(CN(C)C2CCCCC2)n1	0.2	8.8	4.3	62.7*	nt	-10.0	-16.4%
COc1ccccc1C(=O)Nc1ccccc1N1CCCCC1	-3.1	-2.0	-4.9	14.1*	-0.4	2.3	5.5%
Cc1cc(N2CCN(C(=O)c3ccco3)CC2)c2ccccc2n1	3.2	1.1	-0.4	2.3	-0.3	-17.4	nt
O=C(O)CCNc1cc(N2CCN(C(=O)c3ccco3)CC2)c2noc3c2c1C(=O)c1ccccc1-3	1.3	-1.9	-9.2	52.7*	0.1	-21.7	19.1µM*
O=C(N/N=C/c1cccc2nccnc12)c1ccccc1O	nt	2.0	-5.9	58.7*	-0.1	nt	30.2µM*
CCCC(=O)NC(c1cccs1)c1cc([N+](=O)[O-])c2cccnc2c1O (centres undefined)	2.4	0.6	2.8	58.2*	-0.2	-23.1	9.85µM*
O=C(CCc1ccccc1)NC(c1cccs1)c1cc(Cl)c2cccnc2c1O (centres undefined)	nt	-1.9	-0.2	-5.1	0.0	nt	nt

5 successive compounds from above, for reference:
SMILES	PglD inh	ERp5 inh	PDI turbidity	ARNT-TACC3 inh	FGF22 binding	UUG fidelity	ARNT Alpha ctr-1	others
O=C(O)C1CCCCC1C(=O)NCCCn1ccnc1 (centres undefined)	nt	?	-1.9	67.4*	-0.1	nt	-6.3%
O=C(O)C1C2C=CC(C2)C1C(=O)NCCCn1ccnc1 (centres undefined)	-2.7	nt	2.5	53.8*	nt	-19.1	3.4%
O=C(O)C1C2C=CC(C2)C1C(=O)NCCCN1CCCC1=O (centres undefined)	1.0	6.8	-2.7	-21.5	-0.3	-12.0	nt
CN1C(=O)c2cc(NC(=O)c3ccccc3)ccc2OC[C@@H]2O[C@H](CC(=O)NC3CCCC3)CC[C@@H]21	-1.8	-1.4	nt	-2.5	0.1	1.8	nt
COc1ccccc1-c1cn(CC[C@@H]2CC[C@@H](NC(=O)C3CCCC3)[C@H](CO)O2)nn1	nt	-1.5	nt	nt	nt	nt	nt

More compounds follow.
SMILES	PglD inh	ERp5 inh	PDI turbidity	ARNT-TACC3 inh	FGF22 binding	UUG fidelity	ARNT Alpha ctr-1	others
CC(=O)NC(c1cccs1)c1cc([N+](=O)[O-])c2cccnc2c1O (centres undefined)	nt	-4.2	3.9	59.7*	-0.1	nt	6.94µM*
CC(=O)NC(c1cc(Cl)c2cccnc2c1O)C(C)C (centres undefined)	1.1	-7.0	3.7	58.2*	-0.5	-42.0	38.3µM*
CC(C)C(=O)NC(c1ccccc1)c1cc([N+](=O)[O-])c2cccnc2c1O (centres undefined)	nt	10.6	-2.4	0.2	0.1	nt	nt
CO[C@@H]1CN(C)C(=O)c2cc(NS(=O)(=O)C3CCCCC3)ccc2OC[C@H](C)NC[C@@H]1C	-3.0	-0.4	nt	27.0	-0.3	nt	nt
O=C(Nc1nc(-c2ccccn2)cs1)C12CC3CC(CC(O)(C3)C1)C2	nt	-7.5	-3.4	70.6*	0.2	nt	62.3µM*
c1ccc(Nc2nc(-c3ccccn3)cs2)cc1	-1.0	nt	4.9	65.9*	nt	-54.4	48.5µM*
Cc1ccnc2nc(C(=O)Nc3nc(-c4ccccn4)cs3)nn12	nt	-2.0	7.7	66.5*	0.1	nt	13.8µM*
CC(Oc1ccc(F)cc1)C(=O)Nc1nc(-c2ccccn2)cs1 (centres undefined)	-5.6	-0.2	2.8	63.3*	0.1	-39.9	65.9µM*
COc1ccccc1NC(=O)N[C@@H]1CC[C@H](CCNS(=O)(=O)c2ccc(C)cc2)O[C@H]1CO	nt	5.2	nt	nt	nt	nt	nt
CCC(=O)N[C@@H]1CC[C@H](CC(=O)NCc2ccccc2OC)O[C@H]1CO	-2.1	2.5	nt	-2.0	0.9	-15.1	nt
O=C(Nc1nc(-c2ccncc2)cs1)c1ccco1	-0.9	nt	-3.2	7.2	nt	-27.6	nt	ARNT Alpha ctr-2=i
O=C(Nc1nc(-c2ccccn2)cs1)c1ccco1	nt	-0.2	-0.5	59.0*	-0.6	nt	26.1µM*	ARNT Alpha ctr-2=9.78*
Cc1ccc(C(=O)Nc2cccc(C(=O)N/N=C/c3ccc(O)cc3)c2)cc1	8.2	1.9	-63.1	30.8*	0.9	-17.5	-30.2%
